Literature values, collected in patent US8986954B2, “DNA encoding function modifying Nav1.7 antibodies” (UCB Pharma S.A., priority 2009, dated 2015).

Experiments:
ADCC or CDC = settings: mutated constant region (hinge CPPC to SPPS); cited from earlier work
[1] = in vivo; cited from earlier work
FcγR = settings: hybrid IgG2/IgG4 constant region; cited from earlier work
[2] = 3 of 196 patients; cited from earlier work
complement = settings: hybrid IgG2/IgG4 constant region; cited from earlier work

Substance	mediation of ADCC or CDC (ADCC or CDC)	immunogenicity incidence [1] [%]	FcγR binding (FcγR)	patients with anti-Eculizimumab antibodies detected (low titers) [2] [%]	complement activation (complement)
Abatacept: fusion of human CTLA-4 with IgG1 hinge-Fc	does not mediate ADCC or CDC	3	–	–	–
Eculizimumab: humanised anti-human C5 mAb for paroxysmal nocturnal hemoglobinuria comprising a hybrid constant region	–	–	does not bind FcγR	3	nor does it activate complement
